Data from patent US10131664B2 (Celgene Quanticel Research, Inc., priority 2013, dated 2018).

Tests used:
full-length human LSD1 = full-length human LSD1 (Homo sapiens (Human), UniProt O60341); assay: In vitro enzyme inhibition assay LSD-1 (TR-FRET); type: biochemical; settings: read-out: LSD1 IC50, 0.1 nM LSD1, 50 nM H3K4me1-biotin peptide, 2 μM FAD, pH7.3
THP-1 (AML) cells = assay: LSD1 CD11b cellular assay (flow cytometry); settings: read-out: Cellular IC50, CD11b expression in THP-1 (AML) cells, 4 days incubation

## Cn1cc2nc(-c3cnc(N4CCC(N)CC4)nc3-c3ccc(C#N)cc3)ccc2n1
full-length human LSD1
  IC50: < 100 nM
THP-1 (AML) cells
  IC50: 100 to 1000 nM
